Test system: blood capillaries of chorioallantoic membrane of hen's fertilized egg
Experiment: HET-CAM test (hen's egg test on chorioallantoic membrane, Invittox protocol 47)
Parameters: species or system White Leghorn chicken
Description: The HET-CAM (Hen's egg test on chorioallantoic membrane, as per Invittox Protocol 47) method. The hen's egg test on Chorioallantoic Membrane (HET-CAM) is an alternative in-vitro method developed by Luepke et al. to substitute Draize test that was done on rabbits. (Luepke N. Hen's egg chorioallantoic membrane test for irritation potential. Food Chem Toxicol. 1985; 23(2):287-291). It is subsequently modified by […] et al. ([…] Test. The […]. Databank of in-vitro techniques. […] Subsequently, the methodology is successfully adopted to personal care by […] et al. ([…], Bracher M, Courtellemont P, de Silva O. The HET-CAM, a useful in vitro assay for assessing the eye irritation properties of cosmetic formulations and ingredients. Toxicol. […] The egg's shell is opened at the side of the air chamber, and the egg white membrane is removed while avoiding any damage to the fine blood vessels. […] The membrane is carefully moistened with 0.9% NaCl solution and the eggs are replaced in incubator until ready for assaying. […] Onset of haemorrhage (Bleedings), vascular lysis (Blood vessel disintegration), coagulation (protein denaturation intra and extra vascular) is monitored. The onset of the biological endpoints is recorded in number of seconds and the irritancy scores are calculated as per formula prescribed in the protocol document. […]

N-Undecylenoyl glycine & N-capryloyl glycine (1:1)
Irritancy Score by HET-CAM: 8.5

Source: patent US12673017B2, “Ultra-mild, concentrated and self-preserving cleansing compositions for personal care” (GALAXY SURFACTANTS LTD, priority 2022, dated 2026)
